{
  "source": "patent US20150158931A1",
  "about": "“CYSTEINE PROTEASE CAPTURING AGENTS” (Stichting Het Nederlands Kanker Instituut, priority 2012, published 2015)",
  "target": "T1, Recombinant UCH-L3 (Homo sapiens (Human)) (UniProt P15374)",
  "T1 sequence": "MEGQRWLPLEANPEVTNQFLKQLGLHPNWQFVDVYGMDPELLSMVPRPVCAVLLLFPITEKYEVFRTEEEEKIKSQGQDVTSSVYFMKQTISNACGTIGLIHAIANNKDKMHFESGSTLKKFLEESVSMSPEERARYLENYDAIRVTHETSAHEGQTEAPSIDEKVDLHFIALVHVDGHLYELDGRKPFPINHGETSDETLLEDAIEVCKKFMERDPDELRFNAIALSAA",
  "assay": "titration of Ub-Prg against UCH-L3",
  "data": [
    {"substance": "Ubiquitin75-propargylamide (other; C-terminal propargylamide (propargylamine in place of the C-terminal glycine 76); other documents disagree on this pair)", "values": [
      {"measurement": "stoichiometry of the reaction (Ub-Prg per UCH-L3 (1:1))", "result": 1}
    ]}
  ]
}
